Where two headings read alike, the source gives them in different places.
What was measured:
His6-TEV-PPARγ-(234-505) = His6-TEV-PPARγ-(234-505) (Homo sapiens, UniProt P37231); assay: TR-FRET Assay to Measure Co-R Peptide Recruitment to PPARγ
UM-UC-9 engineered cells = assay: Cell proliferation / short-term viability assay, CellTiter-Glo 144 h; details: read-out: CTGlo 144 h UMUC9.5, G150
Procedure: Cell Seeding for Proliferation Assay
UM-UC-9 engineered cells were cultured in Dulbecco's Modified Eagle Medium (DMEM) supplemented with 10% FBS, 25 mM glucose (high glucose), 4.0 mM L-glutamine, 2.0 mM GlutaMAX™, 1.0 mM pyruvate, 1.0% non-essential amino acids (NEAA) in a 95% humidified incubator at 37° C. with 5% CO2. Cell banks of UM-UC-9 engineered assay-ready cells (ARCs) were prepared from a very active growth stage. Vials of ARCs containing approximately 5×10^6 cells per vial were stored in liquid nitrogen vapor phase cryostorage until use.
For making assay plates, ARCs were recovered from cryostorage, strained in a […] cell strainer, verified for cell viability >90% and counted using a cell counter (Cellometer Auto 1000, Nexelom). Each cell line was seeded into 384-well plates (50 μl/well) using DMEM medium at a density previously determined to be in log growth phase 7 days post-seeding (500 cells/well) using a bulk reagent dispenser (Multidrop™ Combi, Thermo Scientific) with a large-bore plastic-tip cassette pre-sanitized with 70% ethanol. One plate of cells was designated as the pretreatment time-zero (T0) control. Freshly seeded plates were allowed to sit lidded for 30 minutes within a biosafety cabinet for cells to settle distributed within the plate wells uniformly and then placed into an automated incubator (STX110, Liconic) at 37° C., 5% CO2, and 95% relative humidity.
Preparation of Test Compound in Assay-Ready Plate
Compounds were stored in a low-temperature sample archive as 10 mM dimethyl sulfoxide (DMSO) solutions at −20° C. under reduced humidity (−45° C. dew point) and protected from light. All samples in the automated archive are stored in 2D barcoded polypropylene tubes, tracked through a laboratory information management system (LIMS), and have been verified for identity and purity by NMR (Chemistry, H3 Biomedicine) and by LCMS (Analytical Chemistry, H3 Biomedicine) at the time of sample registration. Identity by mass matching and purity are again verified at the time of sample request fulfillment by redundant LCMS methods (acidic and basic separation protocols; Analytical Chemistry, H3 Biomedicine). Samples retrieved from low-temperature archive storage were solubilized by heated sonication (Bransonic® Ultrasonic Bath, Branson), transferred (Microlab Starlet, Hamilton) and serially-diluted (Viaflo Assist, Integra) by low-volume liquid handlers, and tracked in LIMS by automation log files to create a ID barcoded master dose-response plate (MDR) to serve as a standard source for all assay-ready plates (ARP) used within an experiment. ARPs prepared by acoustic transfer (ATS-100, EDC) of nL volumes from the MDR source were heat-sealed (PlateLoc, Agilent) and stored at −20° C. prior to use (<7 days from production). Tracking of liquid transfers via acoustic dispenser log files were used to update the LIMS system for all ARP plate maps.
Measurement of Pretreatment Control Cells and Sample Anti-Proliferative Effects on Treated Cells
On day 0 (pretreatment cells) or day 7 (treated cells), a cell proliferation assay was performed using an automated robotic assay platform (ACell, High-Res Biosolutions). Cell ARP's were removed from incubation, their plate lid discarded, and using a bulk reagent dispenser (Multidrop™ Combi, Thermo Scientific with a small-bore metal-tip cassette) 25 μL (1/2 volume) of Cell Titer-Glo® 2.0 Cell Viability Assay reagent (Promega) was added to wells of columns 1-23 (column 24 will be used as plate background or positive control). Cell ARP's were incubated at room temperature in an automation hotel position for a total of 1.0 minute while the next plate was delivered to the bulk reagent dispenser and then lid-free cell ARP's were returned to incubate at 37° C. for 2.5 hours. […]

The chains behind the UniProt entries cited, without tags or fusion partners. Residues count along the entry.
UniProt P37231, 234-505 limits assumed: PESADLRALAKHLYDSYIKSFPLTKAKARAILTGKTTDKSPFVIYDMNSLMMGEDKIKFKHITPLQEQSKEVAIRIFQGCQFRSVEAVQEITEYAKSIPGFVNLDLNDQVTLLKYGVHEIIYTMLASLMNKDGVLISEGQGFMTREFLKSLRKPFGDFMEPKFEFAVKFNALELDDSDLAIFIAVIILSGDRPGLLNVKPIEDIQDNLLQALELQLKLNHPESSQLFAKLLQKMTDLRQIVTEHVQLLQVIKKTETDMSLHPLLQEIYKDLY

[1] = read-out: TR-FRET i-Ag, Co-R peptide (SMRT-ID2) recruitment, top final concentration 20 μM

Structure (SMILES)	AC50 (His6-TEV-PPARγ-(234-505); [1])	IC50 (UM-UC-9 engineered cells)	AC50 (His6-TEV-PPARγ-(234-505); read-out: TR-FRET i-Ag, Co-R peptide (SMRT-ID2) recruitment, top final concentration 20 μM, tested form: mixture of enantiomers)
CCC1CC(C(=O)N[C@H]2CC[C@@](O)(C(F)(F)F)CC2)CCN1C(=O)c1cc(-c2cc(OC)ncc2F)[nH]n1 (single isomer, unassigned) [Example 403-B]	777 nM	1630 nM	–
COc1cc(-c2cc(C(=O)N3CCC(C(=O)N[C@H]4CC[C@@](O)(C(F)(F)F)CC4)CC3C)n[nH]2)c(F)cn1 (single isomer, unassigned) [Example 401-B]	33.6 nM	93.8 nM	–
COc1cc(-c2cc(C(=O)N3CCC(C(=O)Nc4c(F)ccc5ccnn45)CC34CC4)n[nH]2)c(F)cn1 (single isomer, unassigned) [Example 468-A]	496 nM	5030 nM	–
COc1cc(-c2cc(C(=O)N3CCC(C(=O)NCC45COC(C4)C5)CC34CC4)n[nH]2)c(F)cn1 (single isomer, unassigned) [Example 337-B]	2080 nM	8160 nM	–
COc1cc(-c2cc(C(=O)N3CC[C@H](C(=O)NC(C)c4ncc(F)cc4Cl)CC34CC4)n[nH]2)c(F)cn1 (single isomer, unassigned) [Example 377-A]	6.3 nM	25.2 nM	–
COCCC(F)(F)C1(O)CCC(NC(=O)[C@H]2CCN(C(=O)c3cc(-c4cc(OC)ncc4F)[nH]n3)C3(CC3)C2)CC1 (single isomer, unassigned) [Example 398-A]	7 nM	6.5 nM	–
COc1cc(-c2cc(C(=O)N3CCC(C(=O)N[C@H]4CC[C@@](O)(C(F)(F)F)CC4)CC3C)n[nH]2)c(F)cn1 (single isomer, unassigned) [Example 401-D]	5.9 nM	6.6 nM	–
Cc1cc(-c2cc(C(=O)N3[C@@H]4CC[C@H]3C[C@H](C(=O)NC3CCC(C(F)(F)F)OC3)C4)n[nH]2)c(F)cn1 (single isomer, unassigned) [Example 289-C]	9.1 nM	52.1 nM	–
COc1cc(-c2cc(C(=O)N3CC(C)C(C(=O)N[C@H]4CC[C@@](O)(C(F)(F)F)CC4)CC3C)n[nH]2)c(F)cn1 (single isomer, unassigned) [Example 298-D]	5510 nM	> 4000 nM	–
COc1cc(-c2cc(C(=O)N3CC[C@H](C(=O)NC4CCN(C5COC56CCC6)C4)CC34CC4)n[nH]2)c(F)cn1 (single isomer, unassigned) [Example 464-B]	11.8 nM	124 nM	–
COc1cc(-c2cc(C(=O)N3CCC(C(=O)N[C@H]4CC[C@@](O)(C(F)(F)F)CC4)CC34CCC4)n[nH]2)c(F)cn1 (single isomer, unassigned) [Example 486-A]	1060 nM	575 nM	–
COc1cc(-c2cc(C(=O)N3CC[C@H](C(=O)NC4CCCN(C5COC5)C4)CC34CC4)n[nH]2)c(F)cn1 (single isomer, unassigned) [Example 421-B]	390 nM	359 nM	–
COc1cc(-c2cc(C(=O)N3CCC(C(=O)N[C@H]4CC[C@@](O)(C(F)(F)F)CC4)CC34CCC4)n[nH]2)c(F)cn1 (single isomer, unassigned) [Example 486-B]	2.9 nM	22.8 nM	–
COc1cc(-c2cc(C(=O)N3CC[C@H](C(=O)NC4CCCn5ccnc54)CC34CC4)n[nH]2)c(F)cn1 (single isomer, unassigned) [Example 479-B]	95.3 nM	1070 nM	–
COCC(F)(F)C1(O)CCC(NC(=O)[C@@H]2CCN(C(=O)c3cc(-c4cc(OC)ncc4F)[nH]n3)C3(CC3)C2)CC1 (single isomer, unassigned) [Example 369-B]	581 nM	1240 nM	–
CCOC1(C(F)(F)F)CCC(NC(=O)[C@@H]2C[C@H]3CC[C@@H](C2)N3C(=O)c2cc(-c3cc(OC)ncc3F)[nH]n2)CC1 (single isomer, unassigned) [Example 303-B]	2.6 nM	20.5 nM	–
COc1cc(-c2cc(C(=O)N3CC[C@H](C(=O)NC4CCC5(CC4)NCC5(F)F)CC34CC4)n[nH]2)c(F)cn1 (single isomer, unassigned) [Example 410-B]	222 nM	428 nM	–
COc1cc(-c2cc(C(=O)N3CCC(C(=O)Nc4c(F)ccc5ccnn45)CC34CC4)n[nH]2)c(F)cn1 (single isomer, unassigned) [Example 468-B]	11.1 nM	60.8 nM	–
COc1cc(-c2cc(C(=O)N3CCC(C(=O)N[C@H]4CC[C@@](OC)(C(F)(F)F)CC4)CC34CC4)n[nH]2)c(F)cn1 (single isomer, unassigned) [Example 324-B]	1.5 nM	0.6 nM	–
COc1cc(-c2cc(C(=O)N3C4CCC3CC(C(=O)NC3CCC(C(F)(F)F)N(C)C3)C4)n[nH]2)c(F)cn1 (single isomer, unassigned) [Example 306-D]	–	37.4 nM	–
Cc1cc(-c2cc(C(=O)N3[C@@H]4CC[C@H]3C[C@H](C(=O)NC3CCC(C(F)(F)F)N(C)C3)C4)n[nH]2)c(F)cn1 (single isomer, unassigned) [Example 311-B]	9.4 nM	42.5 nM	–
COc1cc(-c2cc(C(=O)N3[C@@H]4CC[C@H]3C[C@H](C(=O)NC3CCC(OC)(C(F)(F)F)CC3)C4)n[nH]2)c(F)cn1 (single isomer, unassigned) [Example 275-B]	130 nM	250 nM	–
COc1cc(-c2cc(C(=O)N3CC[C@H](C(=O)NC(C)c4nnc(C5CC5)o4)CC34CC4)n[nH]2)c(F)cn1 (single isomer, unassigned)	270 nM	500 nM	–
COc1cnc(CNC(=O)C2CCN(C(=O)c3cc(-c4cc(C)ncc4F)[nH]n3)C3(CC3)C2)c(Cl)c1 (single isomer, unassigned) [Example 484-B]	72.4 nM	459 nM	–
COc1cc(-c2cc(C(=O)N3CCC(C(=O)N[C@H]4CCN(CC(F)(F)F)C4)CC34CC4)n[nH]2)c(F)cn1 (single isomer, unassigned) [Example 332-B]	680 nM	1820 nM	–
COc1cc(-c2cc(C(=O)N3[C@@H]4CC[C@H]3C[C@H](C(=O)NC3CCC(OC)(C(F)(F)F)CC3)C4)n[nH]2)c(Cl)cn1 (single isomer, unassigned) [Example 257-B]	28 nM	79.1 nM	–
COc1cc(-c2cc(C(=O)N3CC[C@H](C(=O)NC4CCC(CC#N)(C(F)(F)F)CC4)CC34CC4)n[nH]2)c(F)cn1 (single isomer, unassigned) [Example 439-A]	46.6 nM	61.8 nM	–
COc1cc(-c2cc(C(=O)N3CC[C@H](C(=O)NC4CCC(C)N(C)C4)CC34CC4)n[nH]2)c(F)cn1 (single isomer, unassigned) [Example 423-C]	3040 nM	4180 nM	–
COc1cc(-c2cc(C(=O)N3CC[C@H](C(=O)NC4CCOc5cc(F)cnc54)CC34CC4)n[nH]2)c(F)cn1 (single isomer, unassigned) [Example 383-A]	27.4 nM	70.4 nM	–
COc1cc(-c2cc(C(=O)N3CCC(C(=O)NCc4cccc(Cl)c4)CC34CC4)n[nH]2)c(Cl)cn1 (stereo not shown)	–	–	9.8 nM
